Patent US12409171B2, “Pharmaceutically active pyrazolo-pyridone modulators of DCN1/2-mediated cullin neddylation” (UNIVERSITY OF KENTUCKY RESEARCH FOUNDATION, priority 2019, dated 2025)
Read-outs that look alike come from different tables or passages of the source.

Chains of the proteins cited; added tags and fusions are not shown.
UniProt Q96GG9, whole entry: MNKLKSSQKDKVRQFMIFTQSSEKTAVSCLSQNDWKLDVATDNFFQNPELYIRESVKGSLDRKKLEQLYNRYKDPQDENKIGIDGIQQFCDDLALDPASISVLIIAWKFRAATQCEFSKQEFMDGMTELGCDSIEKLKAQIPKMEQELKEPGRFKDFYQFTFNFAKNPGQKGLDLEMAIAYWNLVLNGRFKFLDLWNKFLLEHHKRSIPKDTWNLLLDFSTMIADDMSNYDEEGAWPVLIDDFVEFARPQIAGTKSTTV

Target: DCN1 (Homo sapiens (Human), UniProt Q96GG9)
Assay: TR-FRET binding assay (biotin-DCN1 / Ac-UBE2M12-AlexaFluor488)
Conditions: diastereomer on branched alkyl group
[1] = read-out: IC50 (μM) (TR-FRET), TLC-down diastereomer, TLC-down

SMILES | IC50 [1] [µM] | IC50 (read-out: IC50 (μM) (TR-FRET), TLC-up diastereomer, TLC-up) [µM]
CCC(C)n1nc(C)c2c1N(CC)C(=O)[C@@H](NC(=O)c1cccc(C)c1)[C@H]2c1ccc(F)cc1 (single isomer, unassigned) | 0.5 | –
CCC(C)n1nc(C)c2c1NC(=O)[C@@H](NC(=O)c1cccc(C)c1)[C@H]2c1ccc(F)cc1 (single isomer, unassigned) | 0.6 | 0.7
